Screens: PubChem, National Center for Advancing Translational Sciences (NCATS)
In the library only some 2.3% were active in any assay of this set; here they are far more common.
A549 tox = A549 cytotoxicity, counter-screen for Nrf2 inhibitors; A549 ARE-Fluc cells, CellTiter-Fluor viability, 18-24 h; Potency, µM (top dose mostly 46 µM), for inactives: at the top dose activity change, negative = cytotoxicity, hits mostly inhibitors; 390,000 tested, 0.16% active; note: potency is the fitted concentration of half-maximal effect; % is set by controls: 0 for no effect and ±100 for the full control effect
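A549 ARE-Fluc cells in 5% FBS OPTI-MEM, 5000 cells/well, rested 2 h then exposed to compounds in concentration-response for 18-24 h at 37 °C. Viability by CellTiter-Fluor fluorescence (Ex 405/Em 525) after 30 min; luciferase luminescence (BugLite, 15 min, RT) read afterwards.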
Nrf2 ARE act = activators of Nrf2 (ARE) signaling | AREc32 ARE-luciferase reporter (MCF7-derived line), luminescence, 24 h | Potency, µM (doses to about 46.1 µM), for inactives: at the top dose activation, most hits filed as activators | 410,000 tested, 0.31% active | AID 624171; note: potency is the fitted concentration of half-maximal effect; % of control where 0% means no effect; nearly all actives have a fitted effect of over 65% in size
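Each well held 1000 AREc32 cells, which were incubated with compound for 24 hr at 37 deg C after overnight attachment, and ARE reporter activity was quantified by firefly luciferase luminescence.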
miR-21 FLuc = miR-21 reporter, rising signal | 340,000 tested, under 10 active | AID 2288 | HeLa miR-21 FLuc reporter, luciferase, 48 h | Potency, µM (titrated, usually from 38.3 µM), for inactives: at the highest dose reporter change, positive = more light; active = well fitted rising curve with a large enough effect; inconclusive = small, poorly fitted or top-dose-only effect; inactive = no such curve, though single readings can be large or run the other way;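 further: % of control where 0% means no effect; miR-21 action dims this reporter so a rising signal means less miR-21 action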
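Using DMEM plus 10% FBS, HeLa miR-21-FLuc cells are incubated with test compounds (final up to about 40uM) for 48 hours; firefly luciferase signal is then imaged following reagent-mediated lysis.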
Nrf2 inh = inhibitors of Nrf2 signaling | Potency, µM (series often up to 46 µM), for the others: at the top dose activity change, negative = inhibition, most hits filed as inhibitors | A549 ARE-Fluc reporter, luciferase luminescence, 18-24 h | 360,000 tested, 2.1% active | AID 504444; note: potency is the fitted concentration of half-maximal effect; % is set by controls: 0 for no effect and ±100 for the full control effect; nearly all actives have a fitted effect of over 60% in size
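Reporter: ARE-Fluc in A549. Exposure: 18-24 h, 37 °C, 5% CO2, 5% FBS OPTI-MEM. Readouts: fluorescent cytotoxicity (CellTiter-Fluor), then luminescent Nrf2 signal after BugLite.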
Mito fusion act = blocks mitochondrial division or promotes mitochondrial fusion. Potency, µM (top dose mostly 46.1 µM), for inactives: top-dose growth rescue (activation), usual class: activators. 320,000 tested, 0.23% active. S. cerevisiae fusion-defective mutant growth rescue, CellTiterGlo 48 h. AID 485298; note: potency is the fitted concentration of half-maximal effect; % of control where 0% means no effect; nearly all actives have a fitted effect of over 45% in size
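Luminescent cell viability in 1536-well qHTS format served as the measure of rescued growth in ts fusion-mutant S. cerevisiae cultured on non-fermentable YPEG for 48 hours at 37C.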
* = called active by the depositor; [ ] = remark or other dose. Unless noted, calls come from the whole dose curve; as a rule, active = well fitted curve in the direction sought with a large enough effect; inconclusive = small, poorly fitted or top-dose-only effect, or another doubt; inactive = no such curve, though single readings can be large; an effect the other way counts as inactive or inconclusive.

How did O=C(CSc1nnc(-c2cccs2)o1)c1cccs1 do in these assays?
A549 tox: 0%; Nrf2 ARE act: 6%; miR-21 FLuc: -45%; Nrf2 inh: inconclusive; Mito fusion act: -4%

Results for CCCCOc1ccc(S(=O)(=O)n2c(C)nc3ccccc32)cc1 ?
A549 tox: -18%; Nrf2 ARE act: 0%; miR-21 FLuc: 1%; Nrf2 inh: 7.3µM*; Mito fusion act: -1%

How did COc1ccc(CNc2nc3ccccc3n2Cc2ccc(Cl)cc2)cc1OC do in these assays?
A549 tox: -16%; Nrf2 ARE act: 4%; miR-21 FLuc: 14%; Nrf2 inh: 23µM*; Mito fusion act: 4%

Results for Cc1cccc(Cn2c(Cc3ccccc3)nc3ccccc32)c1 ?
A549 tox: -5%; Nrf2 ARE act: 4%; miR-21 FLuc: -3%; Nrf2 inh: inconclusive; Mito fusion act: inconclusive

Results for Cc1nc2ccccc2n1CCOc1ccccc1 ?
A549 tox: -3%; Nrf2 ARE act: 0%; miR-21 FLuc: 5%; Nrf2 inh: 15µM*; Mito fusion act: -7%

How did CC(C)(C)c1ccc(Cn2c(Cc3ccccc3)nc3ccccc32)cc1 do in these assays?
A549 tox: -11%; Nrf2 ARE act: 4%; miR-21 FLuc: 25%; Nrf2 inh: 23µM*

How did c1ccc(OCCn2c(COc3ccccc3)nc3ccccc32)cc1 do in these assays?
A549 tox: 1%; Nrf2 ARE act: 4%; miR-21 FLuc: -17%; Nrf2 inh: 4%[9.27 µM]

What do the screens show for `N#Cc1nc(NCC2CC2)nc(Nc2ccccc2)n1`?
A549 tox: -7%; Nrf2 inh: -1%

How did CCOC(=O)c1ccccc1NC(=O)c1cc2c(=O)oc3ccc(C)cc3c2s1 do in these assays?
A549 tox: -9%; Nrf2 ARE act: 0%; miR-21 FLuc: -2%; Nrf2 inh: 12%

How did Cc1nc2ccccc2n1Cc1ccc(Cl)cc1 do in these assays?
A549 tox: 9%; Nrf2 ARE act: 4%; miR-21 FLuc: 9%; Nrf2 inh: 18µM*; Mito fusion act: -9%

How did OCc1nc2ccccc2n1Cc1ccc(Cl)cc1 do in these assays?
A549 tox: 4%; Nrf2 ARE act: 2%; miR-21 FLuc: -1%; Nrf2 inh: -20%; Mito fusion act: -4%

Results for O=C(NCCc1nc2ccccc2n1CCOc1ccccc1)C1CCCCC1 ?
A549 tox: inconclusive; Nrf2 inh: 26µM*

Results for COc1ccc(Cl)cc1NC(=O)CSc1nc(=O)n(Cc2ccco2)c2c1CCC2 ?
A549 tox: -21%; Nrf2 ARE act: 11%; miR-21 FLuc: 8%

How did C(C#CCCCCCCCCC[n+]1ccccc1)#CCCCCCCCCC[n+]1ccccc1 do in these assays?
A549 tox: inconclusive; Nrf2 ARE act: -2%; miR-21 FLuc: inconclusive; Nrf2 inh: 12µM*; Mito fusion act: -38%

Results for Cc1nc(-c2coc3cc(O)c(C)cc3c2=O)cs1 ?
A549 tox: -7%; Nrf2 ARE act: 2%; miR-21 FLuc: 3%; Nrf2 inh: 10µM*; Mito fusion act: 2%

Molecules above with a thiophene ring, fused or not (two):
How did O=C(CSc1nnc(-c2cccs2)o1)c1cccs1 do in these assays?
A549 tox: 0%; Nrf2 ARE act: 6%; miR-21 FLuc: -45%; Nrf2 inh: inconclusive; Mito fusion act: -4%

How did CCOC(=O)c1ccccc1NC(=O)c1cc2c(=O)oc3ccc(C)cc3c2s1 do in these assays?
A549 tox: -9%; Nrf2 ARE act: 0%; miR-21 FLuc: -2%; Nrf2 inh: 12%

The list continues:
What do the screens show for `Cc1onc(-c2c(Cl)cccc2Cl)c1C(=O)N/N=C(\N)COc1ccc(Cl)cc1`?
A549 tox: -28%; Nrf2 ARE act: -1%; miR-21 FLuc: 22%; Nrf2 inh: 8.2µM*; Mito fusion act: -1%

Results for COc1cc(/C=N/NC(=O)c2c(-c3c(Cl)cccc3Cl)noc2C)ccc1OCC(N)=O ?
A549 tox: -2%; Nrf2 ARE act: 4%; miR-21 FLuc: 0%; Nrf2 inh: 11%; Mito fusion act: -5%

What do the screens show for `O=C(N/N=C/c1cc(Cl)cc(Cl)c1O)c1ccncc1`?
A549 tox: -8%; Nrf2 ARE act: -1%; miR-21 FLuc: 28%; Nrf2 inh: 9.2µM*; Mito fusion act: -1%

Results for O=C(N/N=C/c1ccc(O)cc1O)c1ccncc1 ?
A549 tox: -17%; Nrf2 ARE act: -1%; miR-21 FLuc: 17%; Nrf2 inh: 12µM*; Mito fusion act: 11%

How did Cc1nnc(N2CCCC(C(=O)Nc3cccc(C(F)(F)F)c3)C2)c2nn(-c3ccccc3)c(C)c12 (stereo not drawn) do in these assays?
A549 tox: inconclusive; Nrf2 ARE act: -1%; miR-21 FLuc: 19%

Results for Cc1ccc(-c2nn3c(C)nnc3s2)cc1NC(=O)c1ccc(-c2ccc(Cl)cc2Cl)o1 ?
A549 tox: 21µM*; Nrf2 ARE act: -1%; miR-21 FLuc: -12%; Nrf2 inh: inconclusive; Mito fusion act: 1%

Results for Cc1ccc(-c2nn3c(C)nnc3s2)cc1NC(=O)c1ccc(-c2cccc(Cl)c2)o1 ?
A549 tox: -13%; Nrf2 ARE act: 0%; miR-21 FLuc: -14%; Nrf2 inh: 15µM*; Mito fusion act: 2%

What do the screens show for `Cc1ccc(NC(=O)CN2C(=O)c3ccccc3Sc3ncccc32)c(C)c1`?
A549 tox: 0%; Nrf2 ARE act: 1%; miR-21 FLuc: -3%; Nrf2 inh: inconclusive

Results for O=C1/C(=C\c2cc(Cl)c(O)c(Cl)c2)SC(=S)N1Cc1ccccc1 ?
A549 tox: -24%; Nrf2 ARE act: 0%; miR-21 FLuc: 25%; Nrf2 inh: 18µM*; Mito fusion act: -50%

How did CCOC(=O)N1CCc2c(sc3c2c(=O)n(Cc2ccccc2)c(=O)n3CC(=O)Nc2ccc(C)cc2C)C1 do in these assays?
A549 tox: -1%; Nrf2 ARE act: 1%; miR-21 FLuc: 6%; Nrf2 inh: 9%

How did O=C(NCCC1=CCCCC1)c1ccc2c(c1)N(Cc1ccc(F)cc1)C(=O)c1ccccc1S2(=O)=O do in these assays?
A549 tox: -13%; Nrf2 ARE act: 4%; miR-21 FLuc: 10%; Nrf2 inh: -4%

What do the screens show for `O=C/C(=C\Nc1ccccn1)c1nc2ccccc2o1`?
A549 tox: 6%; Nrf2 ARE act: 13µM*; miR-21 FLuc: -19%; Nrf2 inh: inconclusive; Mito fusion act: 10%

Results for O=C/C(=C\Nc1ccccn1)c1nc2cc(Cl)ccc2o1 ?
A549 tox: 3%; Nrf2 ARE act: 23%; miR-21 FLuc: -21%; Nrf2 inh: 26%; Mito fusion act: -2%

How did COc1ccc(-c2cc3nc(C)c(C)c(N4CCN(C(=O)c5ccoc5)CC4)n3n2)cc1 do in these assays?
Nrf2 ARE act: 1%

What do the screens show for `Cc1nc2cc(-c3cccc(F)c3)nn2c(N2CCN(C(=O)c3ccco3)CC2)c1C`?
A549 tox: -1%; Nrf2 ARE act: 13µM*; miR-21 FLuc: -45%; Nrf2 inh: 14%; Mito fusion act: 4%

What do the screens show for `Cc1nc2cc(-c3cccc(F)c3)nn2c(C)c1CCC(=O)NC(C)CCc1ccco1` (stereo not drawn)?
A549 tox: 0%; Nrf2 ARE act: 1%; miR-21 FLuc: inconclusive; Nrf2 inh: 0.82µM*; Mito fusion act: 18%

Quoted from the results shown for reference:
How did O=C(NCCC1=CCCCC1)c1ccc2c(c1)N(Cc1ccc(F)cc1)C(=O)c1ccccc1S2(=O)=O do in these assays?
A549 tox: -13%; Nrf2 ARE act: 4%; miR-21 FLuc: 10%; Nrf2 inh: -4%

What do the screens show for `O=C/C(=C\Nc1ccccn1)c1nc2ccccc2o1`?
A549 tox: 6%; Nrf2 ARE act: 13µM*; miR-21 FLuc: -19%; Nrf2 inh: inconclusive; Mito fusion act: 10%
